Laboratory results reported in patent US9598421B2, “Imidazopyridazine compounds” (Pfizer Inc., priority 2014, dated 2017).

By UniProt entry, the sequences of proteins in these tests, tags left out. Chains listed by the source or under a name are the forms on record and can include a tag or linker. Residues count along the entry.
UniProt Q08499, 186-808: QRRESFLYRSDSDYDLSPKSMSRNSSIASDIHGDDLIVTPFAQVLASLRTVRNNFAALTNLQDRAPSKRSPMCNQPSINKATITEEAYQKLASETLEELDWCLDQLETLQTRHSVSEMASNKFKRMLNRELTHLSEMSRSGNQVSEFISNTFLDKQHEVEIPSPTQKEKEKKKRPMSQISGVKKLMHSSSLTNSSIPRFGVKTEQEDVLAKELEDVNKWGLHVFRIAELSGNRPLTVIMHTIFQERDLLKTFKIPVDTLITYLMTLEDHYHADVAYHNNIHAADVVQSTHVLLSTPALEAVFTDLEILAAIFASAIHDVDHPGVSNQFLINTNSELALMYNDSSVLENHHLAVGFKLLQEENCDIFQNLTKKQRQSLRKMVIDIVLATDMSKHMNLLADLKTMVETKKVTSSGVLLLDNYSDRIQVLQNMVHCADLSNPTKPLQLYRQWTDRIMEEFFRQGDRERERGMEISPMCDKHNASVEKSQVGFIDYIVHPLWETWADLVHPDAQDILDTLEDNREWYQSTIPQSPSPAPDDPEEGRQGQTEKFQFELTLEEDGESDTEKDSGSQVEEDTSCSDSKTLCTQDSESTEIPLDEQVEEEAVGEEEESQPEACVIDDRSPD
UniProt P27815, other isoform, or with tags, fused parts or gaps: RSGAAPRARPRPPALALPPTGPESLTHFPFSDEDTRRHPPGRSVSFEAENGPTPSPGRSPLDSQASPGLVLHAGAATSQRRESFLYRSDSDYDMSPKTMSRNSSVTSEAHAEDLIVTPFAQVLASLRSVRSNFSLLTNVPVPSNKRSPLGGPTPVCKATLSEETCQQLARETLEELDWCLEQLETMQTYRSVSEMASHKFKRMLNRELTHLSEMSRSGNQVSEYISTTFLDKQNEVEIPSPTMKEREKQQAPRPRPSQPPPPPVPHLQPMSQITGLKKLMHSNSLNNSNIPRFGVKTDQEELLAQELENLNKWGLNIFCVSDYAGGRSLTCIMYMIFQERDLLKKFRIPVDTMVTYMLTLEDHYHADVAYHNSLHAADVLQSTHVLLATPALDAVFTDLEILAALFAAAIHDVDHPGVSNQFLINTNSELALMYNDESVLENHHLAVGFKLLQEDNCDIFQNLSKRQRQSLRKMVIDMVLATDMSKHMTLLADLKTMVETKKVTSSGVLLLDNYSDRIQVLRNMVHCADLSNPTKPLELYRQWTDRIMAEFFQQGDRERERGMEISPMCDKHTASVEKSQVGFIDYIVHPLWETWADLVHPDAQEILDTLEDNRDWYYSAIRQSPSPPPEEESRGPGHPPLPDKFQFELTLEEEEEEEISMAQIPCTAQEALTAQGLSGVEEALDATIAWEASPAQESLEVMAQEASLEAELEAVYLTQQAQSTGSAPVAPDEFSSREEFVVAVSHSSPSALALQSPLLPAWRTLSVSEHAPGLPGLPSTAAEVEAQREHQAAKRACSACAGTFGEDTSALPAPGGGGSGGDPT
UniProt Q08493, 2-712: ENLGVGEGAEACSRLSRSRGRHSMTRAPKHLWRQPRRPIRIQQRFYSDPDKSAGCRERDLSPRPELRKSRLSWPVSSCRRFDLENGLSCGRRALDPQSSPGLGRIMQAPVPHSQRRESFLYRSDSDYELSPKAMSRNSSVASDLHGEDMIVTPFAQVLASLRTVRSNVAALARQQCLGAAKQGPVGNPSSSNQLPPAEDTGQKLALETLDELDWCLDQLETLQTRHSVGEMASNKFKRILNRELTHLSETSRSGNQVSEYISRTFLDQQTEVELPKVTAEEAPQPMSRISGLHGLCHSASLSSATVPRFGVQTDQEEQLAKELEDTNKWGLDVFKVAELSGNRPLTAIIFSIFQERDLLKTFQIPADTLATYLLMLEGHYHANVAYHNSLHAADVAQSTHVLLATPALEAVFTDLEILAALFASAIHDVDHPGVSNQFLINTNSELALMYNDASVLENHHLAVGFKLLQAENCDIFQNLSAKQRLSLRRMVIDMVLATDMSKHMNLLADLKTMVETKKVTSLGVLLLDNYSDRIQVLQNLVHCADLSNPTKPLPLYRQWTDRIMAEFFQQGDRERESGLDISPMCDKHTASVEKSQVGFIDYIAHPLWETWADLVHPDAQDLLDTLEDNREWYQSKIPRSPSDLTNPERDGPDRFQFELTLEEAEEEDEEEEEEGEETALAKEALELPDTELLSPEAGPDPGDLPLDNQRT

Columns and labels:
Type in all cases: biochemical
[1] = molecular target: Human PDE4D (Homo sapiens (Human), UniProt Q08499); assay: PDE4D Scintillation Proximity Assay (SPA), inhibition of enzyme activity; conditions: human recombinant enzyme, 1 μM cAMP substrate, 30 min at 25° C., geometric mean of 2-9 determinations unless otherwise indicated, read-out: Human PDE4D FL
[2] = molecular target: Human PDE4A (Homo sapiens (Human), UniProt P27815); assay: PDE4A Scintillation Proximity Assay (SPA), inhibition of enzyme activity; conditions: human recombinant enzyme, 1 μM cAMP substrate, 30 min at 25° C., geometric mean of 2-9 determinations unless otherwise indicated, read-out: Human PDE4A FL
[3] = molecular target: Human PDE4C (Homo sapiens (Human), UniProt Q08493); assay: PDE4C Scintillation Proximity Assay (SPA), inhibition of enzyme activity; conditions: human recombinant enzyme, 1 μM cAMP substrate, 30 min at 25° C., geometric mean of 2-9 determinations unless otherwise indicated, read-out: Human PDE4C FL

Row | SMILES | IC50 [1] [nM] | IC50 [2] [nM] | IC50 [3] [nM]
1 | O=C(NC1CC1)c1nc2cccnn2c1-c1ccc2ncnn2c1 [Example 6, N-Cyclopropyl-3-([1,2,4]triazolo[1,5-a]pyridin-6-yl)imidazo[1,2-b]pyridazine-2-carboxamide] | 4890 |  | 
2 | O=C(c1nc2cccnn2c1-c1cncc(Cl)c1)N1CCC1 [Example 15, azetidin-1-yl[3-(5-chloropyridin-3-yl)imidazo[1,2-b]pyridazin-2-yl]methanone] | > 23700 |  | 
3 | Cc1cc(-c2c(C(=O)NC3CC3)nc3cccnn23)c(F)cc1C#N [Example 17, 3-(4-cyano-2-fluoro-5-methylphenyl)-N-cyclopropylimidazo[1,2-b]pyridazine-2-carboxamide] | > 18200 |  | 
4 | Cc1cc(C#N)c(F)cc1-c1c(C(=O)NC2CC2)nc2cccnn12 [Example 19, 3-(4-cyano-5-fluoro-2-methylphenyl)-N-cyclopropylimidazo[1,2-b]pyridazine-2-carboxamide] | 645 |  | 
5 | O=C(c1nc2cccnn2c1-c1ccc(Cl)cc1)N1CCCC1 [Example 27, [3-(4-chlorophenyl)imidazo[1,2-b]pyridazin-2-yl](pyrrolidin-1-yl)methanone] | 5620 | 742 | 
6 | CCCNC(=O)c1nc2cccnn2c1-c1cc(F)cc(Cl)c1 [Example 34, 3-(3-chloro-5-fluorophenyl)-N-propylimidazo[1,2-b]pyridazine-2-carboxamide] | 2110 |  | 47
7 | Cc1ccc(-c2c(C(=O)N3CCC3)nc3cccnn23)cc1Cl [Example 49, azetidin-1-yl[3-(3-chloro-4-methylphenyl)imidazo[1,2-b]pyridazin-2-yl]methanone] | 535 |  | 19
8 | Cc1cc(Cl)ccc1-c1c(C(=O)N2CCC2)nc2cccnn12 [Example 56, azetidin-1-yl[3-(4-chloro-2-methylphenyl)imidazo[1,2-b]pyridazin-2-yl]methanone] | 3930 |  | 
9 | COc1ccc(-c2c(C(=O)N3CCC3)nc3cccnn23)c(F)c1 [Example 73, azetidin-1-yl[3-(2-fluoro-4-methoxyphenyl)imidazo[1,2-b]pyridazin-2-yl]methanone] | > 24700 |  | 
10 | O=C(Nc1cn[nH]c1)c1nc2cccnn2c1-c1ccc(Cl)c(F)c1 [Example 82, 3-(4-chloro-3-fluorophenyl)-N-(1H-pyrazol-4-yl)imidazo[1,2-b]pyridazine-2-carboxamide] | 56.5 |  | 
11 | O=C(c1nc2cccnn2c1-c1ccc2c(c1)OC(F)(F)O2)N1CCC1 [Example 86, azetidin-1-yl[3-(2,2-difluoro-1,3-benzodioxol-5-yl)imidazo[1,2-b]pyridazin-2-yl]methanone] | 179 |  | 25
12 | O=C(c1nc2cccnn2c1-c1cc(F)c(Cl)cc1F)N1CCC1 [Example 91, azetidin-1-yl[3-(4-chloro-2,5-difluorophenyl)imidazo[1,2-b]pyridazin-2-yl]methanone] | 2250 |  | 
13 | Cc1cc(C#N)c(F)cc1-c1c(C(=O)NC(C)C)nc2cccnn12 [Example 99, 3-(4-cyano-5-fluoro-2-methylphenyl)-N-(propan-2-yl)imidazo[1,2-b]pyridazine-2-carboxamide] | 1550 |  | 
14 | O=C(Nc1ccn[nH]1)c1nc2cccnn2c1-c1ccc(Cl)cc1 [Example 103, 3-(4-chlorophenyl)-N-(1H-pyrazol-5-yl)imidazo[1,2-b]pyridazine-2-carboxamide] | 1550 |  | 
